Measured values reported in US6794494B1, “Cancerous disease modifying antibodies” (Arius Research, Inc., priority 2003, dated 2004).

Assays:
HT-29 cells = test: Live/Dead cytotoxicity assay, hybridoma supernatant; conditions: hybridoma supernatant or controls, 5 days
SW620 cells = test: as above; conditions: hybridoma supernatant or controls, 5 days

Substance: sodium azide
- Cytotoxicity (%) HT-29 Average (HT-29 cells): 61%
- Cytotoxicity (%) SW620 Average (SW620 cells): 68%
